Compound activity from PubChem BioAssay.
PglD inh: inhibitors of Campylobacter jejuni PglD acetyltransferase; purified PglD enzyme, DTNB colorimetric CoA detection; inhibition, % at 12.5 µM; actives 0.098% (n = 360,000); in the data active = inhibition above about 16%, passing the limit was not always enough
ARNT TACC3 PPI: ARNT/TACC3 interaction disruption. AlphaScreen His-ARNT PAS-B/GST-TACC3 binding, luminescence; TACC3 fragment carries E629A point mutation. inhibition, % at 9.99 µM. actives 0.66% (n = 390,000). AID 623870;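 active = mean inhibition of replicates at least 50% and at least half of replicates each reaching 50%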;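 also: 0% = complete ARNT plus TACC3 wells and 100% = ARNT alone without TACC3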
PDI turbidity: PDI (human) enzyme inhibition; P07237; PDI insulin aggregation turbidity, A650, 90 min; inhibition, % at 10 µM; actives 0.052% (n = 350,000); AID 588391;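 active = mean inhibition across replicates of 30% or more, whatever share of single replicates reach that level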
UUG fidelity: modulators of start codon recognition fidelity in yeast; S. cerevisiae UUG-firefly luciferase reporter, luminescence/redox ratio; activity score, % at 18.7 µM; hit rate 0.13% among 350,000; AID 602363;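 active = replicate mean at a twofold rise or more, about +100% in these data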;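 note: firefly luciferase made from a UUG start codon reports start codon fidelity; reporter light over untreated wells divided by growth signal over untreated wells; some hits fall short of that in this replicate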
FGF22 binding: FGF22 (human) thermal shift binding; Q9HCT0; recombinant FGF22 thermal shift, SYPRO orange fluorescence; percent of sucrose octasulfate shift, DMSO zero; activity (Tm shift, normalised), % at 9.99 µM; actives 1.5% (n = 340,000);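 active = mean Tm shift, scaled 0 neutral to 100 positive control, at about 1.3% or above, every replicate too, limit read from the data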
ERp5 block: ERp5 (human) disulfide isomerase inhibition. Q15084. ERp5 insulin aggregation, absorbance 650 nm, 90 min. inhibition, % at 9.99 µM. actives 0.05% (n = 350,000). AID 651711;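 active = mean replicate inhibition above about 25%, with every replicate also reaching it, limit read from the data, passing the limit was not always enough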
Numbers without * were called inactive; . = no result; ! = not confirmed by another sample. Only some compounds are listed: those with a hit (about 1.9% of all), similar ones and a draw of the others.

Values run as follows: PglD inh	ARNT TACC3 PPI	PDI turbidity	UUG fidelity	FGF22 binding	ERp5 block
> CCCCN(CCCC)C(=O)CN(C)S(=O)(=O)c1ccc2c(c1)n(C)c(=O)c(=O)n2C
  0	-7	-13	-17	0	-6
> CN(CC(=O)O)S(=O)(=O)c1ccc2c(c1)n(C)c(=O)c(=O)n2C
  .	-8	-2	.	44*	-3
> S=C(NCCCn1ccnc1)Nc1cccc(Cl)c1
  -2	42*	8	-21	0	-6
> CCOc1ccc(NC(=S)NCCCn2ccnc2)cc1
  .	.	12	.	.	.
> CC(NC(=O)Nc1ccc(Cl)cc1)C1CCCO1 (stereo not given)
  .	-6	5	.	43*	4
> Cc1cc(C(C)(C)C)cc(C)c1S(=O)(=O)N1CC(=O)Nc2ccccc21
  -3	4	-6	-3	1.5*	0
> COc1ccc2c3c([nH]c2c1)[C@@H](CO)N(C(=O)Nc1ccc(F)cc1)CC31CN(Cc2ccccc2OC)C1
  .	.	.	.	0	.
> COc1ccc(S(=O)(=O)Nc2ccc3c(c2)CC(=O)N([C@@H](C)CO)C[C@@H](C)[C@@H](CN(C)Cc2ccncc2)O3)cc1
  1	-11	.	1	0	-5
> C[C@@H]1CN([C@H](C)CO)C(=O)c2cccc(NS(=O)(=O)c3cccs3)c2O[C@H]1CN(C)C(=O)Nc1ccc(C(F)(F)F)cc1
  -5	2	.	16	0	-1
> CS/C(=N\S(=O)(=O)c1cccs1)Nc1ccc(F)c(Cl)c1
  .	-5	-4	.	1.3*	5
> CS(=O)(=O)c1ccc(C(=O)OCC(=O)N2CCOCC2)cc1[N+](=O)[O-]
  0	.	5	-19	0	3
> CS(=O)(=O)c1ccc(C(=O)OCC(=O)N2CCN(CCC3CCCCC3)CC2)cc1[N+](=O)[O-]
  -6	.	91*	-4	42	1
> O=C(CSc1cccc[n+]1[O-])CSc1cccc[n+]1[O-]
  .	2	0	.	43*	0
> CCOC(=O)Cc1csc(NC(=O)COc2ccc(C)cc2)n1
  -4	-2	-4	-2	43*	1
> COCC(=O)N(C)C[C@H]1Oc2cc(C#CC(C)(C)O)ccc2S(=O)(=O)N([C@H](C)CO)C[C@H]1C
  6	-5	.	3	0	73*
> C[C@@H]1CN([C@@H](C)CO)S(=O)(=O)c2ccc(C#Cc3cccnc3)cc2O[C@H]1CN(C)C(=O)CN(C)C
  6	-4	.	0	0	54*
> CC(C)C#Cc1ccc2c(c1)O[C@@H](CN(C)C(=O)C1CC1)[C@@H](C)CN([C@@H](C)CO)S2(=O)=O
  0	0	.	6	0	61*
> CCCC#Cc1ccc2c(c1)O[C@H](CN(C)C(=O)C1CC1)[C@H](C)CN([C@H](C)CO)S2(=O)=O
  1	50*	.	26	0	-2
> C[C@@H]1CN([C@@H](C)CO)S(=O)(=O)c2ccc(Br)cc2O[C@H]1CN(C)C(=O)c1ccncc1
  -1	-2	-5	-8	43*!	-2
> CCOc1ccccc1C(=O)Nc1cc(C)ccc1NC(=O)c1ccco1
  0	-5	1	-7	1.7*	4
> CC(C)(C)c1ccc(NC(=O)c2ccccc2)c([N+](=O)[O-])c1
  -10	.	16	-37	44*	-1
> Cc1ccc(NC(=O)COc2ccccc2)c(NC(=O)c2ccco2)c1
  3	.	10	-9	0	30*
> CCOc1ccc(CC(=O)Nc2ccc(NC(=O)c3ccco3)cc2)cc1OCC
  1	2	14	-18	44*	-4
> Cc1c(NC(=O)c2ccc(C(C)(C)C)cc2)cccc1[N+](=O)[O-]
  0	-4	-16	-4	0	-1
> C[C@@H]1CCCCO[C@@H](CN(C)Cc2ccc(C(F)(F)F)cc2)[C@H](C)CN([C@H](C)CO)C(=O)c2cc(NS(=O)(=O)c3cn(C)cn3)ccc2O1
  -1	2	.	-5	-1	4
> O=C(C[C@H]1C[C@H]2c3cc(NS(=O)(=O)c4ccc(F)cc4)ccc3O[C@H]2[C@@H](CO)O1)NC1CCCCC1
  -1	-3	.	.	0	-7
> O=C(C[C@@H]1CC[C@H]2[C@@H](COC[C@H](O)CN2S(=O)(=O)c2ccc(F)cc2)O1)NCC1CCCCC1
  3	6	.	7	0	4

Quoted from the listing.
Under UUG fidelity, CS(=O)(=O)c1ccc(C(=O)OCC(=O)N2CCOCC2)cc1[N+](=O)[O-] reads -19
Under FGF22 binding, C[C@@H]1CCCCO[C@@H](CN(C)Cc2ccc(C(F)(F)F)cc2)[C@H](C)CN([C@H](C)CO)C(=O)c2cc(NS(=O)(=O)c3cn(C)cn3)ccc2O1 reads -1
Under FGF22 binding, Cc1c(NC(=O)c2ccc(C(C)(C)C)cc2)cccc1[N+](=O)[O-] reads 0

An excerpt of these results, with each value named.
CCCC#Cc1ccc2c(c1)O[C@H](CN(C)C(=O)C1CC1)[C@H](C)CN([C@H](C)CO)S2(=O)=O
  PglD inh: 1; ARNT TACC3 PPI: 50*; PDI turbidity: .; UUG fidelity: 26; FGF22 binding: 0; ERp5 block: -2
C[C@@H]1CN([C@@H](C)CO)S(=O)(=O)c2ccc(Br)cc2O[C@H]1CN(C)C(=O)c1ccncc1
  PglD inh: -1; ARNT TACC3 PPI: -2; PDI turbidity: -5; UUG fidelity: -8; FGF22 binding: 43*!; ERp5 block: -2
